Values of other authors as cited in patent publication US4469691A, “Hexamethylenetetramine-N-acetyl-thiazolidine-4-carboxylate, a process for its preparation and a pharmaceutical composition containing it” (Ausonia Farmaceutici s.r.l., priority 1982, dated 1984).

Details: in vivo; cited from earlier work

Structure (SMILES): C1N2CN3CN1CN(C2)C3 [EMTA, hexamethylenetetramine]
- Absorption (in words): readily absorded
